Experimental data published in ChEMBL document CHEMBL1154647, “Synthesis, spectral characterization and biological evaluation of phosphorylated derivatives of galanthamine” (Eur J Med Chem, 2010).

Key:
Brain [1] = experiment: Antioxidant activity in Wistar rat brain assessed as glutathione content; format: functional
Summary of the method: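 Wistar rat brain was homogenised 1:40 (w/v) in 0.1 M phosphate buffer, pH 7.4, with 1 mM EDTA. Total glutathione (GSH + GSSG) and reduced GSH were assayed spectrophotometrically from optical density, using net rate against a standard-curve slope and intercept, times a dilution factor. Homogenate protein was measured by the Lowry method.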

Brain [2] = experiment: Antioxidant activity in Wistar rat brain assessed as catalase content; format: functional
Brain [3] = experiment: Antioxidant activity in Wistar rat brain assessed as lipid peroxidation; format: functional, tissue-based
Brain [4] = experiment: Antioxidant activity in Wistar rat brain assessed as superoxide dismutase content; format: functional

| SMILES | Activity (Brain [1]) | Activity (Brain [2]) | Activity (Brain [3]) | Activity (Brain [4]) |
| --- | --- | --- | --- | --- |
| COc1ccc2c3c1O[C@H]1C[C@@H](OP(=O)(Oc4ccc([N+](=O)[O-])cc4)SCCN)C=C[C@@]31CCN(C)C2 (stereo partly drawn) | 5.08 µg/mL | 293 µg/mL | 75.5 µg/mL | 29.9 µg/mL |
| COc1ccc2c3c1O[C@H]1C[C@@H](OP(=O)(SCCN)N(CCCl)CCCl)C=C[C@@]31CCN(C)C2 (stereo partly drawn) | 5.02 µg/mL | 285 µg/mL | 72.4 µg/mL | 30.6 µg/mL |
